# Source: US20090088403A1, “A3 ADENOSINE RECEPTORS AS TARGETS FOR THE MODULATION OF CENTRAL SEROTONERGIC SIGNALING” (priority 2007, published 2009)
# Test system: SERT
# Assay: [3H]5-HT transport assay in mouse brain synaptosomes
# Assay type: cell-based
# Details: midbrain synaptosomes; inhibitor 10 min before IB-MECA; MRS1191 1 μM, DT-2 1.0 μM, H8 0.1 μM, SB203580 1.0 μM
compound,measurement,value
C[S+]([O-])c1ccc(-c2nc(-c3ccncc3)c(-c3ccc(F)cc3)[nH]2)cc1 (stereo not shown) [SB203580],effect on IB-MECA (10 nM) stimulated 5-HT uptake,blocked the effects of IB-MECA in stimulation of SERT activity
